One series has as its system CYP 14 sub-family. Conditions: human hepatocytes, 48 hours exposure; PB 1 microM, RIF 50 microM.
The test system of a further series is CYP450. Conditions: known inducers used for validation; cited from earlier work.

This is an account of results in patent publication US20040171015A1, “Cyp450-specific dna probes and primers, and biological applications thereof” (priority 2003, published 2004).

Regarding `CO[C@H]1/C=C/O[C@@]2(C)Oc3c(C)c(O)c4c(O)c(c(/C=N/N5CCN(C)CC5)c(O)c4c3C2=O)NC(=O)/C(C)=C\C=C\[C@H](C)[C@H](O)[C@@H](C)[C@@H](O)[C@@H](C)[C@H](OC(C)=O)[C@@H]1C` [rifampicine, Rifampicine], the “variation of CYP 14 sub-family (hybridization signal)” value with CYP 14 sub-family was “no variation”. Further, in the series with CYP450, the CYP450 induced entry is “CYP 3A”.
